Data on 1 compound can be found in US20240002326A1, “COMPOUNDS AND USE THEREOF IN METHODS OF TREATMENT” (The University of Queensland, priority 2016, published 2024).

Sequences of proteins named here, by UniProt entry; tags and fusion partners are left off. Residues count along the entry.
UniProt Q04887, 105-173 limits assumed: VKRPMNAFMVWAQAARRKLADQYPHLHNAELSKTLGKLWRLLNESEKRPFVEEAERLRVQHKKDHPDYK
UniProt P43267, 47-115 limits assumed: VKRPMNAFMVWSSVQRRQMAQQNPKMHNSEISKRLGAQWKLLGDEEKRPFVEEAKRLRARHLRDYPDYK

For one assay, the target named is SOX9 HMG fragment (Mus musculus (Mouse), UniProt Q04887). The assay can be described thus: FP DNA-binding competition assay, SOX9 HMG fragment. The settings on record: read-out: DNA-binding inhibition IC50, SOX9 HMG; HMG only fragment. The protocol:
(§1) Mouse SOX HMG fragments. The HMG domains of mouse SOX2 (Group B), SOX11 (Group C), SOX6 (Group D), SOX9 (Group E), SOX18 (Group F) and SOX15 (Group G) were BP cloned from cDNA templates (IMAGE cDNA clone IDs: Sox18: 3967084; Sox9: 5354229; Sox4: 6822618) into a pDONRTM221 pENTRY vector, sequenced and recombined into a pETG20A or a pHisMBP expression plasmid using Gateway®LR Technology (Ng et al., 2012). Constructs were transformed into Escherichia coli BL21(DE3) cells (Luria-Bertani, 100 μg/ml Ampicillin).
(§2) The DNA-binding competition assay was performed in black 384-well plates, with mouse full length SOX18, or SOX-HMG fragments. All experiments were performed using a fluorescently-labelled Prox1-DNA element. […]
(§3) The DNA-binding competition assay was performed in 25 uL, in black 384-well plates, using either 30 mM HEPES (N-2-Hydroxyethylpiperazine-N′-2-Ethanesulfonic Acid) (pH 7.5, with 100 mM KCl, 40 mM NaCl, 10 mM NH4OAc, […], 2 mM MgCl2, 0.5 mM EDTA, 0.01% NP-40) for mouse full length SOX18, or Tris-NaCl (10 mM Tris pH 8.0 and 100 mM NaCl) for SOX-HMG fragments. […] After mixing protein, DNA probe and compound, plates were sealed and briskly agitated in the dark for 5 minutes at room temperature, 10 minutes at 37° C., and 30 minutes at room temperature, before reading fluorescence polarization on a Tecan M1000Pro (λexc=485 nm, λem=525 nm). […]

In another assay the target is SOX15 HMG fragment (Mus musculus (Mouse), UniProt P43267). The experiment in a line: FP DNA-binding competition assay, SOX15 HMG fragment. The following applies: read-out: DNA-binding inhibition IC50, SOX15 HMG; HMG only fragment. As to the method:
as §1, §2, §3

Turning to `O=C(O)c1c(O)cccc1CCc1ccc2ccccc2c1`, the results for the IC50 on SOX9 HMG fragment and at SOX15 HMG fragment were 270 to 310 µM and 200 to 220 µM, respectively.
